Sequences of proteins named here, by UniProt entry; tags and fusion partners are left off. A change or cut given only in a name is not applied to a line headed by its entry.
UniProt P41145: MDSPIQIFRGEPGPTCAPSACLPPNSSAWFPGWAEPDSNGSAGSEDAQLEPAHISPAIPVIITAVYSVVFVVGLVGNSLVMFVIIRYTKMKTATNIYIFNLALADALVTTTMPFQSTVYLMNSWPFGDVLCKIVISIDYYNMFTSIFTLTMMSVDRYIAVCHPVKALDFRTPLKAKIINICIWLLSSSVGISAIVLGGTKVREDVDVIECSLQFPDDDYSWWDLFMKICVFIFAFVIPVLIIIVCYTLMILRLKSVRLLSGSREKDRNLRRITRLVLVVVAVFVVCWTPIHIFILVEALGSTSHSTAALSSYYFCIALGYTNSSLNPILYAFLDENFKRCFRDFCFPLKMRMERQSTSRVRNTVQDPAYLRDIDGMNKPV
UniProt Q99720, whole entry, looked up: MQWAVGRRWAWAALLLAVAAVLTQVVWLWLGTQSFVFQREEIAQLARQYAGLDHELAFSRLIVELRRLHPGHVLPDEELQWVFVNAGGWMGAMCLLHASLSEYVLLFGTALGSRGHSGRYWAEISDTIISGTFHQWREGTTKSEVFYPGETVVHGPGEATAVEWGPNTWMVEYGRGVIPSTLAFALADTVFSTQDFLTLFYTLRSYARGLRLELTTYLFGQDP
UniProt P35372, whole entry, looked up: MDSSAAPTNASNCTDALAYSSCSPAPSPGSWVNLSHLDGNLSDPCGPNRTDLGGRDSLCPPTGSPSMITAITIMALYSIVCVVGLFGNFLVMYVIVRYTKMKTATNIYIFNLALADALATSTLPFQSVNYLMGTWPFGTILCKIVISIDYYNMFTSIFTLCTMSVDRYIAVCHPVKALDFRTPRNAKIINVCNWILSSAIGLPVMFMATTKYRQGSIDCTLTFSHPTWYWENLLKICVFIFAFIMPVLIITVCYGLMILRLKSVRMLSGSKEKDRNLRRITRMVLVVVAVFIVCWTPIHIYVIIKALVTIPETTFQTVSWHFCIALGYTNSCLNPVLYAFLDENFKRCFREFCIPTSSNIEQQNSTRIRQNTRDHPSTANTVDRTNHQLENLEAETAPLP
UniProt P41143, whole entry, looked up: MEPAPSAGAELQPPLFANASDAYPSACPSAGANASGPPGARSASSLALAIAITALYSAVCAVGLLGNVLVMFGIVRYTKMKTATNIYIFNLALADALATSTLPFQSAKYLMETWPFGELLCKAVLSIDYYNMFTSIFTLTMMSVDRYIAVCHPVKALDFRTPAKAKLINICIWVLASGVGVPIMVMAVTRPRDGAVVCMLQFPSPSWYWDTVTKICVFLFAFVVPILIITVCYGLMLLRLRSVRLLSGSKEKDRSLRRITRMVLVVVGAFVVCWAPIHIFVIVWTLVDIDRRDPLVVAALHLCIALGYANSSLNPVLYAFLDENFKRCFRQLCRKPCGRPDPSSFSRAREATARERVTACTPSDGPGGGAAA

According to ChEMBL document CHEMBL4507308:

Key:
Settings in all cases: Compound concentration 10.0 uM
[1] = target: Kappa-type opioid receptor (Homo sapiens) (UniProt P41145); experiment: GPCRScan assay: inhibition of KOR
[2] = target: Sigma non-opioid intracellular receptor 1 (Homo sapiens) (UniProt Q99720); experiment: GPCRScan assay: inhibition of Sigma 1; design: radioligand conc. used [nm] 4.0 – 5.0, parental cells HEKT
[3] = target: Mu-type opioid receptor (Homo sapiens) (UniProt P35372); experiment: GPCRScan assay: inhibition of MOR
[4] = target: Delta-type opioid receptor (Homo sapiens) (UniProt P41143); experiment: GPCRScan assay: inhibition of DOR; design: radioligand conc. used [nm] 1.0 – 2.0, parental cells stable HEK

Measured: inhibition

Cc1cnc(-c2cc(Cl)ccc2F)cc1-n1c(=O)n(CC(N)=O)c2cnccc21
inactive: [1] -0.979% | [2] 50% | [3] 13.7% | [4] -4.16%

Cc1cnc(-c2cc(Cl)ccc2F)cc1-n1c(=O)n(CC(N)=O)c2ccccc21
inactive: [1] 13.5% | [2] 13.2% | [3] 47.4% | [4] 17.5%
